According to PubChem BioAssay AID488896 (Broad Institute, 2010):
The list shows a part of the results, in another mix than the full data. Some of these compounds have results that are not shown, active ones among them. The source made the active and inactive calls.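 The calls were made as follows: active = mean replicate inhibition of at least 70% and a set share of replicates each scoring 70 or more; inconclusive = meets just one of the two criteria; inactive = fails both criteria.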

By UniProt entry, the sequences of proteins in these tests, tags left out.
UniProt Q61009, whole entry: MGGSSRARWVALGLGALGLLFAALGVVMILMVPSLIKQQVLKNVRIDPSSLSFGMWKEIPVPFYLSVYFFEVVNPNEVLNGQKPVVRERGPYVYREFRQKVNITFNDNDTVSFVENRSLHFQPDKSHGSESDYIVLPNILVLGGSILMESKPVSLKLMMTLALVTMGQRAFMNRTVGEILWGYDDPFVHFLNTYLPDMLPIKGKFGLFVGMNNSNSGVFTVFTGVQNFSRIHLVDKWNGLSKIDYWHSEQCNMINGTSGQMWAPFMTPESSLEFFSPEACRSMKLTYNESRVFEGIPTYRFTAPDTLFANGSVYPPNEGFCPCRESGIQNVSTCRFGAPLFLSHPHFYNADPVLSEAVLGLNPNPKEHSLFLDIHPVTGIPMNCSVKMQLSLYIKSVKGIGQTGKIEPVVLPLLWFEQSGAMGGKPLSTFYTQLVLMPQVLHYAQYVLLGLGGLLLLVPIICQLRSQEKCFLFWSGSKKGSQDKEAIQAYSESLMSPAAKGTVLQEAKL

target: Scavenger receptor class B member 1 (Mus musculus) (UniProt Q61009); test: inhibitors of SR-BI mediated HDL lipid uptake, primary screen, ldlA[mSR-BI] cells, fluorescence, single point (AID 488896); details: ldlA[mSR-BI] CHO cells, DiI-HDL uptake fluorescence, 3 h; at 12.5 µM; active compounds read high;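 also: 0% = median of neutral control wells and 100% = median of positive control wells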

| SMILES | inhibition |
| --- | --- |
| O=C(OC1CN2CCC1CC2)C(CO)(c1ccccc1)c1ccccc1 (configuration not stated) | inactive: -29% |
| CN(C)c1cccc(C(=O)NCC2(N(C)C)CCCCC2)c1 | inactive: -36.6% |
| O=C(OCCN1CCCC1)C(O)(c1ccccc1)c1ccccc1 | inactive: 1.28% |
| CC(C)Oc1ccc(C(=O)NCC2(N(C)C)CCCCC2)cc1 | inactive: 7.08% |
| CN(C)C1(CNC(=O)c2ccc(Br)cc2)CCCCC1 | inactive: -54.8% |
| COc1cc(C(=O)NCC2(N(C)C)CCCCC2)c([N+](=O)[O-])cc1OC | inactive: -6.86% |
| COc1ccc(Cl)cc1C(=O)NCC1(N(C)C)CCCCC1 | inactive: -0.252% |
| COc1cccc(C(=O)NCC2(N3CCCCC3)CCCCC2)c1 | inactive: -2.95% |
| CN(C)c1ccc(C(=O)NCC2(N(C)C)CCCCC2)cc1 | inactive: 10.3% |
| CN(C)C1CCCC1OC(=O)C(O)(c1ccccc1)c1ccccc1 (configuration not stated) | inactive: -9.34% |
| Cc1ccccc1C(=O)NCC1(N2CCCCC2)CCCCC1 | inactive: -12.3% |
| O=C(NCC1(N2CCCCC2)CCCCC1)c1cc(F)c(F)cc1Cl | inactive: -0.523% |
| C=CCN1CCN(CCOC(=O)C(O)(c2ccccc2)c2ccccc2)CC1 | inactive: -5.79% |
| CCN1CCCC(OC(=O)C2(O)c3ccccc3C=Cc3ccccc32)C1 (configuration not stated) | inactive: -37.4% |
| Cc1cc(C(=O)NCC2(N3CCCCC3)CCCCC2)ccc1[N+](=O)[O-] | inactive: 3.18% |
| COc1ccc(C(=O)NCC2(N(C)C)CCCCC2)cc1 | inactive: -20.7% |
| O=C(NCC1(N2CCCCC2)CCCCC1)c1cc([N+](=O)[O-])ccc1Cl | inactive: -13.3% |
| CN1[C@@H]2CC[C@H]1CC(OC(=O)C(O)(c1ccccc1)c1ccccc1)C2 (some centres not stated) | inactive: -12.2% |
| CC(C)N1C(=O)CC2(CCN(CCOC(=O)C(O)(c3ccccc3)c3ccccc3)CC2)C1=O | inactive: -18.6% |
| COc1cc(SC)ccc1C(=O)NCC1(N(C)C)CCCCC1 | inactive: -25.3% |
| CCN(CC)CC(C)C(C)OC(=O)C(O)(c1ccccc1)c1ccccc1 (configuration not stated) | inactive: -10.9% |
| Cc1ccc(C(=O)NCC2(N3CCCCC3)CCCCC2)cc1 | inactive: -18% |
